In patent publication US11452735B2, “Pharmaceutical combinations of organo-arsenoxide compounds and mTOR inhibitors” (NewSouth Innovations Pty Limited, priority 2015, dated 2022):

Experiments:
MiaPaca2 cells = test: MTT cell proliferation, 72 h (single agent and fixed ratio combination); assay type: cell-based, human; conditions: combination with PENAO, fixed ratio, MiaPaca2, 72 h, CompuSyn
Method: (§1) Except otherwise mentioned, all the reagents and chemicals were from Sigma (St Louis, Mo.). […] Except otherwise mentioned, cells were from ATCC (Bethesda, Va.) and all culture media, serum, antibiotics and supplements were from Invitrogen (Mulgrave, VIC, Australia). All cultures contained 20 units/mL penicillin and 20 units/mL streptomycin. […] Panc1 (human pancreatic adenocarcinoma, Kras mutated G12D) cells were cultured in DMEM containing 2 mM glutamine. Capan1 (human pancreatic adenocarcinoma, derived from metastatic site, Kras mutated G12V) cells were cultured in IMDM containing 20% v/v foetal bovine serum and 2 mM glutamine. […]
(§2) MiaPaca2, AsPC1, Panc1, Capan1, SKOV3 and U251MG cells were seeded at a density of 4×10^3 cells/well, and G89 cells at 1×10^4 cells/well, in 96-well plates. […] Viable cells were determined using the vital dye, MTT, according to the manufacturer's instructions.
(§3) Tumour cell lines were seeded in 96-well plates, allowed to adhere for 24 then treated with the compounds for 72 h. Viable cells were determined using the vital dye, MTT. […]
(§4) Tumour cell lines were seeded in 96-well plates, allowed to adhere for 24 then treated with the compounds for 72 h, either as single agent or in a fixed ratio combination. Viable cells were determined using the vital dye, MTT. […]

Panc1 cells = test: as above; assay type: cell-based, human; conditions: combination with PENAO, fixed ratio, Panc1, 72 h, CompuSyn
Method: as §1, §2, §3, §4

[1] = test system: human pancreatic, ovarian and brain tumour cells; test: Synergy on proliferation across the tumour cell panel (MTT, CompuSyn); assay type: cell-based; conditions: combination with PENAO, tumour cells in culture
Method: The terms “synergy”, “synergistic”, “synergistic effect” and “synergistic combination” as used herein refers to a mixture of two or more discrete agents which, when combined, display a degree of anticancer activity, such as anti-proliferative activity or cytotoxicity etc., which is greater than the expected additive effect of said agents. […] CompuSyn software was utilised to calculate combination index (CI) values for drug combinations.
MiaPaca2, AsPC1, Panc1, Capan1, SKOV3 and U251MG cells were seeded at a density of 4×10^3 cells/well, and G89 cells at 1×10^4 cells/well, in 96-well plates. Cells were allowed to adhere for 24 h at 37° C. in a 5% CO2, 95% air atmosphere and then treated with compounds (see Table 1 and FIG. 1 for details) for 72 h. Viable cells were determined using the vital dye, MTT, according to the manufacturer's instructions.
Tumour cell lines were seeded in 96-well plates, allowed to adhere for 24 then treated with the compounds for 72 h, either as single agent or in a fixed ratio combination. Viable cells were determined using the vital dye, MTT. […] CI values are mean±SD from at least two experiments.

SMILES: CO[C@H]1C[C@@H]2CC[C@@H](C)[C@@](O)(O2)C(=O)C(=O)N2CCCC[C@H]2C(=O)O[C@H]([C@H](C)C[C@@H]2CC[C@@H](OP(C)(C)=O)[C@H](OC)C2)CC(=O)[C@H](C)/C=C(\C)[C@@H](O)[C@@H](OC)C(=O)[C@H](C)C[C@H](C)/C=C/C=C/C=C/1C [Deforolimus]
- CI at ED50 (combination index) (MiaPaca2 cells): 0.80 ± 0.10
- CI at ED50 (combination index) (Panc1 cells): 0.73 ± 0.01
- Synergistic effect with PENAO on proliferation [1]: act synergistically
